Assay outcomes deposited in PubChem BioAssay by several laboratories.
NALP1 inh – inhibitors of NALP1 inflammasome in yeast. S. cerevisiae NALP1/ASC/caspase-1 growth, X-gal OD620, 72 h. AID 2071. inhibition, % at 10 µM. 0.61% of 280,000 active; in the data active = inhibition mostly above about 24%, no sharp cut-off; inactive = mostly below about 32%
ALR inh – blocks human ALR sulfhydryl oxidase activity | inhibition, % (no concentration beside the values) | 3.8% of 290,000 active | purified ALR, DTT oxidation, H2O2 HRP-luminol luminescence | AID 485317 | P55789;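 active = mean and each replicate at 75% or more; inconclusive = only one of the two met; inactive = neither met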;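 also: stock transfer was 7.5 nL into about 7.5 µL; 0% = neutral wells and 100% = wells with inactivated enzyme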
MC4R antagonist – antagonists of human melanocortin 4 receptor (MC4R) | P32245 | MC4R-expressing cells, MTII-stimulated cAMP, LANCE TR-FRET | inhibition, % at 6.5 µM | 0.48% of 360,000 active | AID 540295;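 active = inhibition above its plate's cutoff, the mean of tested wells on that plate plus 3 SD, cut at about 29% in these data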;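 note: 0% = Melanotan II alone and 100% = Melanotan II plus saturating MCL0020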
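Assay system: U2OS-MC4R stable cell line; Also added: Melanotan II; Technique: Eu-cAMP/anti-cAMP TR-FRET, emission 671 nm; Times: 30-min compound, 1-h challenge, 1-h detection, room temperature.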
HDAC3 inhib – human HDAC3 inhibition; 0.15% of 320,000 active; inhibition, % at 8.3 µM; recombinant HDAC3, fluorogenic peptide/trypsin coupled, fluorescence; O15379; in the data active = inhibition above about 26%, passing the limit was not always enough
MC4R barr agon – activates human MC4R beta-arrestin recruitment; activation, % at 8.9 µM; P32245; U2OS MC4R beta-arrestin complementation, luminescence; percent of melanotan II response, DMSO zero; 0.98% of 360,000 active;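 active = activation above a per-plate cutoff, the mean activation of sample wells on that plate plus 3 SD, cut at about 8% in these data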
Yeast UUG start – modulators of start codon recognition fidelity in yeast. S. cerevisiae UUG-firefly luciferase reporter, luminescence/redox ratio. activity score, % at 18.7 µM. 0.13% of 350,000 active. AID 602363;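 active = replicate mean at a twofold rise or more, about +100% in these data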;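 also: firefly luciferase made from a UUG start codon reports start codon fidelity; reporter light over untreated wells divided by growth signal over untreated wells; some hits fall short of that in this replicate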
Starred values were filed as active, the others as inactive. This is a sample that favours compounds with a hit; in the whole collection about 4.2% have one here.

Start of the listing, in advance:
For S=c1[nH]nc(-c2cccc3ccccc23)n1-c1cccnc1 the results were ALR inh 90.9*, MC4R antagonist 7.9, HDAC3 inhib 8.4, MC4R barr agon -4.6 and Yeast UUG start -3.4.
Screening O=C(CN1CCOCC1)N[C@H]1CC[C@@H](CCNC(=O)C2CCCC2)O[C@@H]1CO returned Yeast UUG start 82.2.
`CCC(C)Sc1nnc(Cc2cc(=O)[nH]c(=O)[nH]2)n1-c1ccc(F)cc1` (stereo not given) gave NALP1 inh 14.6, ALR inh 97.8*, MC4R antagonist 2.5, HDAC3 inhib 4.4, MC4R barr agon -0.2 and Yeast UUG start -15.6.

The list itself, from the first entry:
For S=c1[nH]nc(-c2cccc3ccccc23)n1-c1cccnc1 the results were ALR inh 90.9*, MC4R antagonist 7.9, HDAC3 inhib 8.4, MC4R barr agon -4.6 and Yeast UUG start -3.4.
Screening O=C(CN1CCOCC1)N[C@H]1CC[C@@H](CCNC(=O)C2CCCC2)O[C@@H]1CO returned Yeast UUG start 82.2.
`CCC(C)Sc1nnc(Cc2cc(=O)[nH]c(=O)[nH]2)n1-c1ccc(F)cc1` (stereo not given) gave NALP1 inh 14.6, ALR inh 97.8*, MC4R antagonist 2.5, HDAC3 inhib 4.4, MC4R barr agon -0.2 and Yeast UUG start -15.6.
For CCOc1ccc(-n2c(Cc3cc(=O)[nH]c(=O)[nH]3)nnc2SC(C)C)cc1 the results were NALP1 inh 4.4, ALR inh 0.8, MC4R antagonist -1.1, HDAC3 inhib -1.3, MC4R barr agon 1.7 and Yeast UUG start -10.5.
For COC(=O)c1cc(CSC(=N)N)ccc1OCCC(C)C the results were NALP1 inh 6.2, ALR inh 99.3*, MC4R antagonist 3.6, HDAC3 inhib 6.3, MC4R barr agon 0.2 and Yeast UUG start -6.6.
Screening CCCOc1ccc(CSC(=N)N)cc1C(=O)OC returned NALP1 inh -18.7, ALR inh 98.7*, MC4R antagonist -8.9, HDAC3 inhib 6.1, MC4R barr agon -2.0 and Yeast UUG start -8.5.
For Cc1csc(/N=C/c2ccc([N+](=O)[O-])cc2)n1 the results were NALP1 inh 36.0, ALR inh 84.8*, MC4R antagonist 5.3, HDAC3 inhib -0.8 and MC4R barr agon 1.6.
Screening CC(=O)N(C)C[C@H]1[C@H](c2ccc(C3=CCCC3)cc2)[C@H](CO)N1CC1CC1 returned Yeast UUG start 4.5.
`CN(C)C(=C(C#N)C#N)N1CCN(c2ccc(Cl)cc2)CC1` gave NALP1 inh -6.6, ALR inh 39.0, MC4R antagonist 25.4, HDAC3 inhib 2.7 and MC4R barr agon 0.9.
Screening CSC(=NC#N)N1CCN(c2ccc(Cl)cc2)CC1 returned NALP1 inh 3.7, ALR inh 97.3*, MC4R antagonist 4.3, HDAC3 inhib 1.4, MC4R barr agon -0.9 and Yeast UUG start -25.0.
Screening CCCNC(=O)[C@H]1[C@H](CO)[C@H]2Cn3c(cccc3=O)[C@H]2N1C(=O)C1CCCC1 returned Yeast UUG start 5.0.
Screening CC(=O)Nc1ccc(SCC(=O)N(CCC#N)c2ccc(C)cc2)cc1 returned NALP1 inh -18.1, ALR inh 96.7*, MC4R antagonist 5.8, HDAC3 inhib -6.1, MC4R barr agon -0.3 and Yeast UUG start -11.1.
For O=C(C1=C[C@H](c2csc3ccccc23)C[C@H](OCCCCO)O1)N1CCCCCCC1 the results were Yeast UUG start 21.2.
`Cc1ccc(C(=O)/C=C/Nc2ccc3c(c2)OCO3)cc1` gave NALP1 inh 5.5, MC4R antagonist 4.6, HDAC3 inhib 6.2, MC4R barr agon 12.2* and Yeast UUG start -31.4.
For O=S(=O)(Cc1cc(N2CCOCC2)nc(-c2ccccn2)n1)c1ccccc1 the results were NALP1 inh 22.0*, ALR inh -2.1, MC4R antagonist 5.1, HDAC3 inhib -0.5 and MC4R barr agon 0.0.
Screening CCN(Cc1ccncc1)C(=O)c1cc(Br)cc(Br)c1O returned NALP1 inh -1.3, ALR inh 94.1*, MC4R antagonist -1.3, HDAC3 inhib 0.6, MC4R barr agon -4.0 and Yeast UUG start -5.4.
N#Cc1ccccc1CN1C(=O)S/C(=C/c2cccn2-c2ccc(C(=O)O)cc2)C1=O was read as NALP1 inh 12.3, ALR inh 98.1*, MC4R antagonist 0.3, HDAC3 inhib 2.5 and MC4R barr agon -0.3.
For COc1cc(-c2nc3ccccn3c2/N=C/c2ccccc2)ccc1O the results were NALP1 inh -10.5, ALR inh 84.4*, MC4R antagonist -9.1, HDAC3 inhib -2.7, MC4R barr agon -0.3 and Yeast UUG start -4.5.
COc1cc(-c2nc3ccccn3c2/N=C/c2cccc(F)c2)ccc1O was read as NALP1 inh 1.5, ALR inh 77.6*, MC4R antagonist -16.1, HDAC3 inhib -7.5 and MC4R barr agon -2.6.
For COc1cc(-c2nc3ccccn3c2NCC2CCCO2)ccc1O (stereo not given) the results were NALP1 inh -3.9, ALR inh 98.7*, MC4R antagonist -3.6, HDAC3 inhib -21.9, MC4R barr agon -2.5 and Yeast UUG start -4.7.
`COc1cc(-c2nc3ccccn3c2/N=C/c2cc(OC)c(O)cc2Cl)ccc1O` gave NALP1 inh -11.2, ALR inh 94.3*, MC4R antagonist -9.6, HDAC3 inhib -4.3 and MC4R barr agon -1.8.
Screening COc1ccc(-c2nc3ccccn3c2/N=C/c2ccc(OC)c(OC)c2)cc1O returned NALP1 inh 4.5, MC4R antagonist -14.0, HDAC3 inhib -8.3, MC4R barr agon 0.3 and Yeast UUG start -19.6.
Screening O=C(N[C@@H]1CC[C@H](CCNC(=O)C2CCC2)O[C@@H]1CO)c1ccccn1 returned Yeast UUG start 14.6.
Screening C[C@@H]1CCCCO[C@@H](CN(C)C)[C@H](C)CN([C@H](C)CO)C(=O)c2cc(N(C)C)ccc2O1 returned Yeast UUG start 12.0.
Cc1oc(-c2ccc(Cl)cc2)nc1CS(=O)CC(=O)NCc1ccccc1 (stereo not given) was read as NALP1 inh -14.6, ALR inh 98.8*, MC4R antagonist 1.2, HDAC3 inhib -4.7, MC4R barr agon 2.0 and Yeast UUG start -19.3.
`CCc1ccc(-c2nc(CS(=O)CC(=O)NCc3ccccc3)c(C)o2)cc1` (stereo not given) gave NALP1 inh 14.0, ALR inh 99.3*, MC4R antagonist 6.5, HDAC3 inhib -1.7, MC4R barr agon -1.6 and Yeast UUG start -0.6.
`COc1ccc(-c2nc(CS(=O)CC(=O)NCc3ccc(Cl)cc3)c(C)o2)cc1` (stereo not given) gave NALP1 inh 2.4, ALR inh 99.1*, MC4R antagonist 15.8, HDAC3 inhib 0.8, MC4R barr agon -0.6 and Yeast UUG start -18.3.
`Cc1oc(-c2ccc(Cl)cc2)nc1CS(=O)CC(=O)NC(C)c1ccccc1` (stereo not given) gave NALP1 inh 3.8, ALR inh 97.8*, MC4R antagonist 9.6, HDAC3 inhib 4.0, MC4R barr agon -0.4 and Yeast UUG start -8.6.
Cc1ccc(-c2nc(CS(=O)CC(=O)NCc3ccc(Cl)cc3)c(C)o2)cc1 (stereo not given) was read as NALP1 inh -17.5, ALR inh 54.2, MC4R antagonist 10.3, HDAC3 inhib -5.8, MC4R barr agon 0.3 and Yeast UUG start -14.1.
COc1cccc(C#Cc2cnc3c(c2)C(=O)N([C@@H](C)CO)C[C@@H](C)[C@H](CN(C)C(=O)C2CC2)O3)c1 was read as Yeast UUG start 12.2.
